According to patent US20210277127A1:

Target: EGFR on the surface of A431 cells (UniProt P00533)
Experiment: cell-based or functional assay

## Bispecific-3 (anti-EGFR.CD3 tetravalent bispecific antibody, EGFR antibody sequence of Panitumumab)
  cell mortality rate (killing of PKH26-labeled A431 cells by CD3+ T cells, flow cytometry): 80%

## Bispecific-1 (anti-EGFR.CD3 tetravalent bispecific antibody, EGFR antibody sequence of nimotuzumab)
  cell mortality rate (killing of PKH26-labeled A431 cells by CD3+ T cells, flow cytometry): 80%
